# Yeast mating assay 2: variants of the scFv Ab-91

Reference: Engelhart et al. 2022, doi:10.1038/s41597-022-01779-4. File: FLAb, binding data.

All variants were tested on one target, the spike HR2 peptide PDVDLGDISGINAS (SARS-CoV-2).

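The starting antibody came from a phage panning campaign against this peptide. In library AAYL51, one, two or three CDR residues were substituted; doubles and triples were drawn at random. The assay is AlphaSeq: two haploid yeast populations carry antibody and antigen on their surface. Pairs that bind mate more often; barcode pairs of the diploids are counted by sequencing. Read counts were normalised to the haploid input and turned into Kd by a linear fit to BCL2-family pairs of known affinity, for each replicate. Mating was done three times.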

Each scFv is VL, a (GGGGS)3 linker, VH, as in the parent Ab-91, and differs from it in the CDRs of the heavy chain only.
VL: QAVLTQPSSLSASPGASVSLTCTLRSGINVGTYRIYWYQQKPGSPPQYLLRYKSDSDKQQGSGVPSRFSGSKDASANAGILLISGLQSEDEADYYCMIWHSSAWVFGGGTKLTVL
VH: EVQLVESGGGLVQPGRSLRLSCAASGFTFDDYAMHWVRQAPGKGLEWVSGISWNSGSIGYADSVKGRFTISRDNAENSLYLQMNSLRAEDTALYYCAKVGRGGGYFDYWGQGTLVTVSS

Each variant is given by its three heavy chain CDRs, as the data file delimits them; those of the parent are GFTFDDYAMH, GISWNSGSIGYADSVK, VGRGGGYFDY. This list gathers variants with a substitution at I51 (VH, numbered from residue 1). Each Kd is an estimate from the mating assay, the geometric mean of the replicates in which the pair was seen; lower is stronger. "no signal" marks a missing value. The strain was present, yet no cells mated with the target were sequenced in any replicate, which points to weak or no binding. As a blank, each scFv also met three strains without target: over library AAYL51, 21% of these pairings were detected, typically at 34 µM and seldom below 1.8 µM.

CDR-H1,CDR-H2,CDR-H3,Kd (apparent),replicates with signal
GKTFDDYNMH,GCSWNSGSIGYADSVK,VGRGGGYFDY,no signal,0/3
GFTFDDYAMH,GQSWNSGSIGYADSVK,VGRGGGYFDY,no signal,0/3
GFTFFDYAMH,GWSWNSGSIGYADSVK,VQRGGGYFDY,20 µM,1/3
GFTFDDYAMH,GLSWNSGSIGYNDSVK,VGRGGGPFDY,910 µM,2/3
GFTFDDYAMG,GRSWNSGSIGYADSVK,VGRGGGYFDH,no signal,0/3
GFKFDDDAMH,GHSWNSGSIGYADSVK,VGRGGGYFDY,42 µM,1/3
GFTFDDYAMH,GNSWSSGSIGYADSVK,VGRGGGYFDY,770 nM,1/3
GFTFDDYAMH,GVSWNSGSIGNADSVK,VGRGGGYFDY,190 µM,3/3
GFTFDDYAMH,GMSWNSGSIHYIDSVK,VGRGGGYFDY,16 µM,2/3
GFEFDDRAMH,GHSWNSGSIGYADSVK,VGRGGGYFDY,no signal,0/3
GFTFDDYAMH,GSSWNSGSIGYAVSVK,VGRGGGYSDY,no signal,0/3
GFTFDDYAMH,GHSWNSGSIGYADSVI,VGRGGGYFDY,no signal,0/3
GFTFDDDAMH,GSSWNSGSIGYADSVI,VGRGGGYFDY,no signal,0/3
GFTFDDYAMH,GASWNAGSIGYADSVK,VGRGFGYFDY,no signal,0/3
GFTFDDYAMH,GKSWNSSSIGYADSVK,VGRGGGYTDY,29 µM,2/3
GFTFDDYAMH,GLSWNSGSIGYADSVM,VGRGGYYFDY,40 µM,2/3
GFTCDDYAMH,GCSWNSGSIGYADSVK,VGKGGGYFDY,25 µM,1/3
GFTFDDYAMH,GLSWNSHSIGYADSVK,VGRGGGYFDY,65 µM,2/3
GFTFDDYAMI,GWSWNSGSIGYADSVK,VGRGGGYFDY,no signal,0/3
GFTFDDYAMH,GVSWNSGPIGYADSVK,VGRGGGYFHY,2.6 µM,1/3
GFTFDDYAMH,GVSWNSGSILYADSVK,VWRGGGYFDY,200 µM,1/3
GFTFDDYAMH,VDSWNSDSIGYADSVK,VGRGGGYFDY,no signal,0/3
GFTFDDYAMH,GESWNSGSIGSADSVK,VGRGGGYFDY,no signal,0/3
GFTFDDYAMA,GMSWNSGSIGYADSVK,VGRGGGYFDY,1.3 mM,1/3
GFTFDDYAMH,GNSWNSGSIGYADSVK,VGRFGGYLDY,46 µM,2/3
GFTFDDYAMH,GHSWNSGSINYADSVK,VGRGCGYFDY,2.4 mM,1/3
GFTFDDYAMH,GCSWNSGSIGYADSVK,VGRGGGYFDY,no signal,0/3
GWTKDDYAMH,GKSWNSGSIGYADSVK,VGRGGGYFDY,650 nM,1/3
GFTFDDYAIH,GSSWNSGSIGYADSVK,VGLGGGYFDY,35 µM,2/3
GFTFHDYAMH,GTSWNSGSIGYADSVK,VGRGGGEFDY,no signal,0/3
GFTFFDYPMH,GWSWNSGSIGYADSVK,VGRGGGYFDY,54 µM,2/3
GFTFKDYAMH,GNSWNSGSIGYADSVK,VGRGGGYFDY,no signal,0/3
LFTFADYAMH,GFSWNSGSIGYADSVK,VGRGGGYFDY,610 µM,1/3
GFTFDDYAMD,GSSWNSGSIGYADSVK,VGRGGGYFDY,54 µM,2/3
GFTFDDYAMH,GWSWNSGSIGYADSVK,VNRGGGYFDY,no signal,0/3
GFIFLDYAMH,GKSWNSGSIGYADSVK,VGRGGGYFDY,no signal,0/3
GFTFDDYAMH,GASWNSGSIGYADSVK,VGRGQKYFDY,no signal,0/3
GFTFDDYAMH,GMSWNSGSIGYAISVK,VGRGGHYFDY,no signal,0/3
GFTFDDYAMH,GCSWNSGSHGYADSVK,VGRGYGYFDY,57 µM,3/3
GFRFDDYAMH,GKSWNSGSIGYADSVK,VGRGGGYFDY,no signal,0/3
GFYFDDYAMH,GPSWNSGSIGYADSVK,VGVGGGYFDY,no signal,0/3
GFTFDDYAMH,GDSWNSGSIGYADSVK,VGRGGGYFDY,no signal,0/3
GFTFDDYAMH,GVNWNSGSIGYADSVY,VGRGGGYFDY,150 nM,2/3
GFTFDHYAMH,GWSWNSGSIGYADSVK,VGRGGTYFDY,no signal,0/3
GFTFDDYAMH,GWSWNSGSIGYADSVK,QGRGGGYYDY,no signal,0/3
GFTFDDYAMH,GLSWNSGHINYADSVK,VGRGGGYFDY,no signal,0/3
GFTFDDYAMH,GTSWVSGSIGYADSVK,VGRGGGYFYY,no signal,0/3
GFTFDDTAMH,GVSWNSGSIGYACSVK,VGRGGGYFDY,25 µM,1/3
GFTFDDYAMH,GSSWNSGSIGYADSVK,VGRGEGYFPY,14 µM,2/3
GFQFDDYAMH,GVSWNSGSCGYADSVK,VGRGGGYFDY,310 nM,3/3

Top 3 of the variants detected in all replicates, tightest first:

{"CDR-H1": "GFQFDDYAMH", "CDR-H2": "GVSWNSGSCGYADSVK", "CDR-H3": "VGRGGGYFDY", "Kd (apparent)": "310 nM", "replicates with signal": "3/3"}
{"CDR-H1": "GFTFDDYAMH", "CDR-H2": "GCSWNSGSHGYADSVK", "CDR-H3": "VGRGYGYFDY", "Kd (apparent)": "57 µM", "replicates with signal": "3/3"}
{"CDR-H1": "GFTFDDYAMH", "CDR-H2": "GVSWNSGSIGNADSVK", "CDR-H3": "VGRGGGYFDY", "Kd (apparent)": "190 µM", "replicates with signal": "3/3"}